Data from patent publication US6919338B2, “Substituted quinazoline derivatives and their use as inhibitors of aurora-2 kinase” (AstraZeneca AB, priority 2000, dated 2005).

Sequences of proteins named here, by UniProt entry; tags and fusion partners are left off.
UniProt O14965, whole entry: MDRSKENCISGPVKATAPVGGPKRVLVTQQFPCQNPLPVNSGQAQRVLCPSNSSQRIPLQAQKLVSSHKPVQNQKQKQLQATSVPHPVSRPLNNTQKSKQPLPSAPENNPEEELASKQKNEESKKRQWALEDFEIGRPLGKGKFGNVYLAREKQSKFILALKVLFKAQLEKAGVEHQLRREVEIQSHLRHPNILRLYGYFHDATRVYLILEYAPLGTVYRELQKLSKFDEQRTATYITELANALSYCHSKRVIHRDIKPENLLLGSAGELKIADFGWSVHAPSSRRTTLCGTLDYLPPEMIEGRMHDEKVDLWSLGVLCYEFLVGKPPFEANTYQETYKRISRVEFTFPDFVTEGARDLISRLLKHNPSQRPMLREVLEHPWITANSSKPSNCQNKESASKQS

Assays:
aurora2 kinase = aurora2 kinase (Homo sapiens, UniProt O14965); test: In vitro aurora2 kinase inhibition test; conditions: read-out: concentration giving 50% inhibition of enzyme activity; recombinant aurora2, 33P-ATP, biotinylated peptide substrate, 60 minutes at room temperature
From the text: (a) In Vitro Aurora2 Kinase Inhibition Test This assay determines the ability of a test compound to inhibit serine/threonine kinase activity. DNA encoding aurora2 may be obtained by total gene synthesis or by cloning. This DNA may then be expressed in a suitable expression system to obtain polypeptide with serine/threonine kinase activity. In the case of aurora2, the coding sequence was isolated from cDNA by polymerase chain reaction (PCR) and cloned into the BamH1 and Not1 restriction endonuclease sites of the baculovirus expression vector pFastBac HTc (GibcoBRL/Life technologies). The 5′ PCR primer contained a recognition sequence for the restriction endonuclease BamH1 5′ to the aurora2 coding sequence. This allowed the insertion of the aurora2 gene in frame with the 6 histidine residues, spacer region and rTEV protease cleavage site encoded by the pFastBac HTc vector. The 3′ PCR primer replaced the aurora2 stop codon with additional coding sequence followed by a stop codon and a recognition sequence for the restriction endonuclease Not1. This additional coding sequence (5′ […] 3′) encoded for the polypeptide sequence YPYDVPDYAS. This sequence, derived from the influenza hemagglutin protein, is frequently used as a tag epitope sequence that can be identified using specific monoclonal antibodies. […]

[1] = test system: human tumour cell line MCF7; test: In vitro cell proliferation assay; conditions: read-out: concentration giving 50% inhibition of cell proliferation; MCF-7 cells, 3 days with compound, CyQUANT
From the text: (a) In Vitro Cell Proliferation Assay
This assay determines the ability of a test compound to inhibit the growth of adherent mammalian cell lines, for example the human tumour cell line MCF7. MCF-7 (ATCC HTB-22) or other adherent cells were typically seeded at 1×10^3 cells per well (excluding the peripheral wells) in DMEM (Sigma Aldrich) without phenol red, plus 10% foetal calf serum, 1% L-glutamine and 1% penicillin/streptomycin in 96 well tissue culture treated clear plates (Costar). The following day (day 1), the media was removed from a no treatment control plate and the plate stored at −80° C. The remaining plates were dosed with compound (diluted from 10 mM stock in DMSO using DMEM (without phenol red, 10% FCS, 1% L-glutamine, 1% penicillin/streptomycin). Untreated control wells were included on each plate. After 3 days in the presence/absence of compound (day 4) the media was removed and the plates stored at −80° C. Twenty four hours later the plates were thawed at room temperature and cell density determined using the CyQUANT cell proliferation assay kit (c-7026/c-7027 Molecular Probes Inc.) according to manufacturers directions. Briefly, 200 μl of a cell lysis/dye mixture (10 μl of 20× cell lysis buffer B, 190 μl of sterile water, 0.25 μl of CYQUANT GR dye) was added to each well and the plates incubated at room temperature for 5 minutes in the dark. […]

## COc1cc2c(Nc3cc(C(=O)Nc4ccc(F)cc4)n(C)c3)ncnc2cc1OCCCN1CCOCC1
aurora2 kinase
  IC50: 89 nM
[1]
  IC50: 5900 nM
